Tested on: caspase 8 and caspase 9 in CPA-treated 9L/P450 cells
Test: Caspase 8 and caspase 9 activity in extracts of CPA-treated cells
Assay type: cell-based, rat
Conditions: IAP expressed by retroviral transduction, cells treated with 1 mM CPA
Procedure: 9L/P450 cells were infected with retrovirus encoding the IAPs p35 or Survivin. IAP expression was verified by reverse transcriptase PCR (FIG. 1A). […] Shown in FIG. 1B are the caspase 8 and caspase 9 activities of the individual cell lines (mean+/−half the range for n=2 separate experiments).
Floating and attached cells were collected, pooled, dissolved in lysis buffer (10 mM Hepes buffer (pH 7.4) containing 2 mM EDTA, 0.1% CHAPS detergent, 5 mM DTT, 350 ng/ml PMSF, 10 ng/ml pepstatin A, 10 ng/ml aprotinin, and 20 ng/ml leupeptin) and then subjected to three freeze-thaw cycles. Lysates were spun and the supernatant (cell extract) was assayed for caspase 3, 8 and 9 activities by incubation with caspase form-selective substrates: Ac-DEVD-AMC (Biomol; cat # P-411) for caspase 3 (Talanian et al., J Biol. Chem. 272:9677-9682 (1997); Thomberry et al., J Biol. Chem. 272:17907-17911 (1997)), LETD-AFC (BioRad; cat# 170-3186) for caspase 8 and Ac-LEHD-AFC (BioRad; cat# 170-3190) for caspase 9.

“hIAP1: human IAP (inhibitor of apoptosis), myc-tagged cDNA, expressed by retroviral transduction” was tested, and the “inhibition of caspase activity” value was “less effective caspase inhibition”.

From patent US20060057109A1 (priority 2002, published 2006)
